Experimental data published in patent US7541466B2, “Tetrahydroisoquinoline derivatives for treating protein trafficking diseases” (Genzyme Corporation, priority 2003, dated 2009).

Amino acid sequences for entries named in this document (tags omitted). Chains listed by the source or under a name are the forms on record and can include a tag or linker.
UniProt P13569, with tags, fused parts or gaps DEL508-508: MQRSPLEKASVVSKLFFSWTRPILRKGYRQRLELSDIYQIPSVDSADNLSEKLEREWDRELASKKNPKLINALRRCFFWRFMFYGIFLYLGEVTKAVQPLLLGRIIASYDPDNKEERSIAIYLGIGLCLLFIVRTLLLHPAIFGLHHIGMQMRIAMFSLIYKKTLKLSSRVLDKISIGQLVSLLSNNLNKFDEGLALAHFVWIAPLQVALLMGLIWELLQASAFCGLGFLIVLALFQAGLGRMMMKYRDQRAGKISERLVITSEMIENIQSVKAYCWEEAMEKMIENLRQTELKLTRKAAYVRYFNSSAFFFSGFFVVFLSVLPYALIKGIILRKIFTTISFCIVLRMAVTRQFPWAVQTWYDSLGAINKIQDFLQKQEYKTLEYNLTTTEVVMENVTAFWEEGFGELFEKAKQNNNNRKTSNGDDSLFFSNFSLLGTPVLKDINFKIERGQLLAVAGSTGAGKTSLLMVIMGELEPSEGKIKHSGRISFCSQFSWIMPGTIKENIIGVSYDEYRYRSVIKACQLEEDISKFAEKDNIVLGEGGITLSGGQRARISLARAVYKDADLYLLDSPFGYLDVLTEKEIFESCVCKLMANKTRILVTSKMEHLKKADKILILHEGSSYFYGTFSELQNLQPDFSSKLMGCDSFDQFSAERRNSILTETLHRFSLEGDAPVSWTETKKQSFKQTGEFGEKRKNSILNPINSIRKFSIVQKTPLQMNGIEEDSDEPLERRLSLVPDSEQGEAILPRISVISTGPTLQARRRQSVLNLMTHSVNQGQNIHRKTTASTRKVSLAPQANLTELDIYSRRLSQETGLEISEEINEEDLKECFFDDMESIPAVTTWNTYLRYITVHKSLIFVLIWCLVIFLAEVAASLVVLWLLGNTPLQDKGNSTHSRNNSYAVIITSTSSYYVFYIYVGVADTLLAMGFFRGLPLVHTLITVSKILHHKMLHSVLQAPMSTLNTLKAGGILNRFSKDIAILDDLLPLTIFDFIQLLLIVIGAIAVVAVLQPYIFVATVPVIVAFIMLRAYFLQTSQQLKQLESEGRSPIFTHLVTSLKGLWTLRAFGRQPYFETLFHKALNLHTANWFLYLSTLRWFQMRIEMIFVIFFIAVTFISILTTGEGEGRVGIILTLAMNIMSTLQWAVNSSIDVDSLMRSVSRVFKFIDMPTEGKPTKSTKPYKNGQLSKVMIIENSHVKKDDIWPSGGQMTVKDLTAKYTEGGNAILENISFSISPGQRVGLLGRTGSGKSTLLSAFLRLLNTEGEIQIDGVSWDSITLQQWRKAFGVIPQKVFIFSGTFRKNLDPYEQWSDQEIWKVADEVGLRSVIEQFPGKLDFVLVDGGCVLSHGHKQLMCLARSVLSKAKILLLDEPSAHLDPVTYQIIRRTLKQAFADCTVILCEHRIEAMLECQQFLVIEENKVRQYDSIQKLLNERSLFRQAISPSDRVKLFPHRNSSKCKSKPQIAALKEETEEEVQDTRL

Target: ΔF508 CFTR (Homo sapiens, UniProt P13569, DEL508-508)
Experiment: MQAE chloride transport assay in C127 cells expressing ΔF508 CFTR
Format: cell-based, murine
Settings: for EC50: chloride transport activity, C127 ΔF508 CFTR cells, MQAE; for % of Maximal Response: plateau level in activity at high compound concentration, as a percentage of the low temperature response

EC50	% of Maximal Response	Compound
340 nM	72%	O=C(Nc1ccc(Cl)cc1)C1Cc2ccccc2CN1C(=O)c1cccc(Oc2ccc(Cl)cc2)c1 (racemic)
250 nM	79%	O=C(c1ccccc1)c1cccc(C(=O)N2Cc3ccccc3CC2C(=O)Nc2ccc(Cl)cc2)c1 (racemic)
260 nM	71%	O=C1c2ccccc2-c2ccc(C(=O)N3Cc4ccccc4CC3C(=O)Nc3ccc(Cl)cc3)cc21 (racemic)
8 nM	84%	CCCCCc1ccc(NC(=O)[C@@H]2Cc3ccccc3CN2C(=O)c2cccc(O[C@H](C)CC)c2)cc1
